One assay addresses Acetylcholinesterase (Homo sapiens, UniProt P22303). The format is functional.
Assay [1] deals with Beta-1 adrenergic receptor (Homo sapiens, UniProt P08588). The class given is functional.
Assay [2] addresses Sodium channel protein type 5 subunit alpha (Homo sapiens, UniProt Q14524). The class given is functional, cell-based.
For assay [3], the target named is Voltage-dependent L-type calcium channel subunit alpha-1C (Homo sapiens, UniProt Q13936). The format is functional, cell-based.
Assay [4] deals with T1, Mu-type opioid receptor (Homo sapiens, UniProt P35372). The experiment in a line: biochemical. The format is functional.
In assay [5] the target is T1, Mu-type opioid receptor.
The target of assay [6] is Type-1 angiotensin II receptor (Homo sapiens, UniProt P30556).
Assay [7] deals with T2, 5-hydroxytryptamine receptor 1A (Homo sapiens, UniProt P08908). The format is functional, cell-based.
For assay [8], the target named is T2, 5-hydroxytryptamine receptor 1A. The format is functional, cell-based. The source holds these as a separate data set.
The target is the same in assay [9].
In another assay the target is D(3) dopamine receptor (Homo sapiens, UniProt P35462).
Assay [10] has as its target T3, 5-hydroxytryptamine receptor 2B (Homo sapiens, UniProt P41595). The class given is functional, cell-based.
The target in assay [11] is T3, 5-hydroxytryptamine receptor 2B. The format is functional, cell-based. The source holds these as a separate data set.
For assay [12] the target is unchanged.
Assay [13] concerns the target 5-hydroxytryptamine receptor 2C (Homo sapiens, UniProt P28335).
Assay [14] has as its target T4, Alpha-2A adrenergic receptor (Homo sapiens, UniProt P08913). The class given is functional, cell-based.
For assay [15], the target named is T4, Alpha-2A adrenergic receptor.
For assay [16] the target is unchanged. The source holds these as a separate data set.
Assay [17] concerns the target Alpha-2C adrenergic receptor (Homo sapiens, UniProt P18825). The class given is functional.
Assay [18] deals with T4, Alpha-2A adrenergic receptor. The class given is functional, cell-based. This is another data set of the same source.
Assay [19] addresses T5, D(1A) dopamine receptor (Homo sapiens, UniProt P21728). The class given is functional, cell-based.
Assay [20] has as its target T5, D(1A) dopamine receptor.
Assay [21] has as its target Alpha-2B adrenergic receptor (Homo sapiens, UniProt P18089).
The target in assay [22] is Beta-2 adrenergic receptor (Homo sapiens, UniProt P07550).
Assay [23] deals with Kappa-type opioid receptor (Homo sapiens, UniProt P41145).
The target of assay [24] is T4, Alpha-2A adrenergic receptor. This is another data set of the same source.

Sequences of proteins named here, by UniProt entry; tags and fusion partners are left off. A change or cut given only in a name is not applied to a line headed by its entry.
UniProt P22303: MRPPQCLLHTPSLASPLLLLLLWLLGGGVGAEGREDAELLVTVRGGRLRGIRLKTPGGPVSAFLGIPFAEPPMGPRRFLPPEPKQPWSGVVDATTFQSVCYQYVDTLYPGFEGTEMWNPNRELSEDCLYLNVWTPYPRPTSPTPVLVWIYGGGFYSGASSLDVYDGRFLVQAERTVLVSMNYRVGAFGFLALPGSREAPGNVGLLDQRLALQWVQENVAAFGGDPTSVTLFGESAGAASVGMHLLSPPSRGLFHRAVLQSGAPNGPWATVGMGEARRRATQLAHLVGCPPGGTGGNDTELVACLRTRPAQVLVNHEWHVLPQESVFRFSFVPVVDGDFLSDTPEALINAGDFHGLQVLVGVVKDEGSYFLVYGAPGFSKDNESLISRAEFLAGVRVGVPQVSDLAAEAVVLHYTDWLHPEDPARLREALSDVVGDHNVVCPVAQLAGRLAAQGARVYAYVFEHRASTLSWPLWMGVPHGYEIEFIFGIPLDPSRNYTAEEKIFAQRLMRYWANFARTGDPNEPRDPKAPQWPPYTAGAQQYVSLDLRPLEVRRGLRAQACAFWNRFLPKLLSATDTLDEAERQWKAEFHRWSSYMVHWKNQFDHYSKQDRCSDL
UniProt P08588, whole entry: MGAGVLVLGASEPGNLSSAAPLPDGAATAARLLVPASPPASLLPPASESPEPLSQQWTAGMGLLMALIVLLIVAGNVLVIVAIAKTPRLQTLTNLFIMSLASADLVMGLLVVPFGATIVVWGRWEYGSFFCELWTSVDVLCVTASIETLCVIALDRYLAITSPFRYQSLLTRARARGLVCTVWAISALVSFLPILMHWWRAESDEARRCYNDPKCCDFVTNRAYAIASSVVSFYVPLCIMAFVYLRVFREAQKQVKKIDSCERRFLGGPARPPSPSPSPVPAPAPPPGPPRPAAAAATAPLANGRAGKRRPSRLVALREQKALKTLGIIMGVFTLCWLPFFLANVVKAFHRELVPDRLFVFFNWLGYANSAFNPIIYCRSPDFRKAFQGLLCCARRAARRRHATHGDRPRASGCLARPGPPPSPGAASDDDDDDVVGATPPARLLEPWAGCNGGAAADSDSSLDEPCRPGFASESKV
UniProt Q13936, whole entry: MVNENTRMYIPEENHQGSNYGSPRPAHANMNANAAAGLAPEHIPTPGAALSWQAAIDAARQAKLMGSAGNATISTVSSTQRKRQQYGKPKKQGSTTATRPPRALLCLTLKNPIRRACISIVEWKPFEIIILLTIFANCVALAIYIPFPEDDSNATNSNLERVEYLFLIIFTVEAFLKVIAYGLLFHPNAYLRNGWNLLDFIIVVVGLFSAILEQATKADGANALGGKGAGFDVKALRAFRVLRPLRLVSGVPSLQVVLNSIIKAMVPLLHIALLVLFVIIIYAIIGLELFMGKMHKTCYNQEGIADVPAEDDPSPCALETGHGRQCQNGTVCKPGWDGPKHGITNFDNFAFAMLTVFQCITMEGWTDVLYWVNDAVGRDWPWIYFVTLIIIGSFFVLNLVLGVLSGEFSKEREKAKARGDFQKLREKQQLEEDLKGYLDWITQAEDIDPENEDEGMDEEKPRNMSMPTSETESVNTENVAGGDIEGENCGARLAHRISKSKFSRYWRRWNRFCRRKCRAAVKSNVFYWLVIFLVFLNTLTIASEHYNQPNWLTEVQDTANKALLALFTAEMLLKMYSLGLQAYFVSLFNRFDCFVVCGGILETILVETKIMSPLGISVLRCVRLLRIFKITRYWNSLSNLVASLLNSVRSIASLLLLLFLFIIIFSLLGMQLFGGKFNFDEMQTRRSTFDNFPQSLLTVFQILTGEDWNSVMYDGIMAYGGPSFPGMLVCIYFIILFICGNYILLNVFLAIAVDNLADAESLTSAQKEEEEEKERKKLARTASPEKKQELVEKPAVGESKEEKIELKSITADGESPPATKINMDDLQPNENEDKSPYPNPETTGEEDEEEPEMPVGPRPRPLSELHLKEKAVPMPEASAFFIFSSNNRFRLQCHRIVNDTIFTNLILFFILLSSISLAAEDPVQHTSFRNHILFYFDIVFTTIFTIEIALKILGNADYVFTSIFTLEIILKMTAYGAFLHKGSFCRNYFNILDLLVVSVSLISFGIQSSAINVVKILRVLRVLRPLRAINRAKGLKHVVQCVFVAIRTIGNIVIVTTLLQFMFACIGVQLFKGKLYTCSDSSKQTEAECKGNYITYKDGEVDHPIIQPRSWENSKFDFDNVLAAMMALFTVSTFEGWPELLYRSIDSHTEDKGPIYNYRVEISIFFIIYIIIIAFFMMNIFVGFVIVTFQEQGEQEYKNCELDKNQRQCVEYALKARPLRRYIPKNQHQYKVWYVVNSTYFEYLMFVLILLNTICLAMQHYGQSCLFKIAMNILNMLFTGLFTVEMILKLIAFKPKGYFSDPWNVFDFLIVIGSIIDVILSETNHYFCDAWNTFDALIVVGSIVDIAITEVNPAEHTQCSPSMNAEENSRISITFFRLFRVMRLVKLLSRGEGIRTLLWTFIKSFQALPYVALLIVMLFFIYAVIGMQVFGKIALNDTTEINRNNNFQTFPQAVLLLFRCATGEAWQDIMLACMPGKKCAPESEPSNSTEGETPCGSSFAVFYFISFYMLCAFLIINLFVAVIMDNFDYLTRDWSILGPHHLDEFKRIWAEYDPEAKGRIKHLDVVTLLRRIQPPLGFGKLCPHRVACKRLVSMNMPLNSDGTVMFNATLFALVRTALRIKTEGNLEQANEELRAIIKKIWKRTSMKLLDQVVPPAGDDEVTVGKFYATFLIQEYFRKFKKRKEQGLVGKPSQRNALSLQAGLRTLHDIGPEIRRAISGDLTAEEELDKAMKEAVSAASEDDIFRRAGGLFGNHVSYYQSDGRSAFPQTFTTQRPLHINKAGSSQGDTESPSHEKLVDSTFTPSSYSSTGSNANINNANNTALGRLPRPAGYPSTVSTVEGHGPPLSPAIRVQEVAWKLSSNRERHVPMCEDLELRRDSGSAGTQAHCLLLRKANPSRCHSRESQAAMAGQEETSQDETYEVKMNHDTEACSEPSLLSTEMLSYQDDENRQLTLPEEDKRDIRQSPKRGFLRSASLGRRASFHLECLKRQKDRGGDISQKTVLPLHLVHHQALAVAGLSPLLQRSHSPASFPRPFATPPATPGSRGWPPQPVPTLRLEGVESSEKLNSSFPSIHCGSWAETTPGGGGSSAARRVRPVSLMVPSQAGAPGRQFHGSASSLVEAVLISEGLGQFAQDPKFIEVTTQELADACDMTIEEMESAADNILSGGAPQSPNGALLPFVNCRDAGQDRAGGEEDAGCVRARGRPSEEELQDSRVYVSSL
UniProt P35462, whole entry: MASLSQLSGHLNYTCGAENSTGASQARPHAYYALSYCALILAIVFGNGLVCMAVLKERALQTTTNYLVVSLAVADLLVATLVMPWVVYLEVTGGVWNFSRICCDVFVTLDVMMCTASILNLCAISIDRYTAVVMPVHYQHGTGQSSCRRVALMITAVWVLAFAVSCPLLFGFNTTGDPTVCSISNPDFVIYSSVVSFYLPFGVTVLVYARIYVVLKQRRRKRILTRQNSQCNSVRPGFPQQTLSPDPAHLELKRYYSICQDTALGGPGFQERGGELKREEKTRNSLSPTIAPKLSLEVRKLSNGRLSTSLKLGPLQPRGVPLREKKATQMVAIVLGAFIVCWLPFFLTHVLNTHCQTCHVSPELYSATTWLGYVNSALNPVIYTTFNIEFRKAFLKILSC
UniProt P41595, whole entry: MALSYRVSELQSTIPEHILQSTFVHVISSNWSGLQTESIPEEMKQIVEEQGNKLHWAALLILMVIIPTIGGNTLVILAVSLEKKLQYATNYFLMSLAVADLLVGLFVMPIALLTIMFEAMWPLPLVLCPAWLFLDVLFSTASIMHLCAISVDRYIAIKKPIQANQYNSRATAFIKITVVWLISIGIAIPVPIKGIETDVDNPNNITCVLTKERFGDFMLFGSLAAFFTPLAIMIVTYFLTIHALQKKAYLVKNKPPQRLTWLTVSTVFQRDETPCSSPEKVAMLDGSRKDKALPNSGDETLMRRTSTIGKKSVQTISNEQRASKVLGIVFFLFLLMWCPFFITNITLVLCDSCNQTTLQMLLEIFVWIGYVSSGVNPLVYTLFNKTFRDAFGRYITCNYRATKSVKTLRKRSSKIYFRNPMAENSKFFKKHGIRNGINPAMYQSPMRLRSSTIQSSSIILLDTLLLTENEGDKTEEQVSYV
UniProt P28335: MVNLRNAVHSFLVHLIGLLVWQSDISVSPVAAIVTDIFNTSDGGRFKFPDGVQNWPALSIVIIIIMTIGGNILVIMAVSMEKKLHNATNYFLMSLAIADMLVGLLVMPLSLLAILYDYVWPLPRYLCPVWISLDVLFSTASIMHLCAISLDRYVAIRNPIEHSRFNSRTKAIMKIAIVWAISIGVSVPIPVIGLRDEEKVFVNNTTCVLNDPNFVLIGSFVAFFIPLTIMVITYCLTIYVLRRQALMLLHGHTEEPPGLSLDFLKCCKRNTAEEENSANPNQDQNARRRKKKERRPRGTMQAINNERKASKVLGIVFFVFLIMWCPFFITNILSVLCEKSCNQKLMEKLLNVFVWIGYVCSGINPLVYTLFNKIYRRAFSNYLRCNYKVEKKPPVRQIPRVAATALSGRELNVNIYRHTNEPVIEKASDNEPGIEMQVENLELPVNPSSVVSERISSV
UniProt P08913, whole entry: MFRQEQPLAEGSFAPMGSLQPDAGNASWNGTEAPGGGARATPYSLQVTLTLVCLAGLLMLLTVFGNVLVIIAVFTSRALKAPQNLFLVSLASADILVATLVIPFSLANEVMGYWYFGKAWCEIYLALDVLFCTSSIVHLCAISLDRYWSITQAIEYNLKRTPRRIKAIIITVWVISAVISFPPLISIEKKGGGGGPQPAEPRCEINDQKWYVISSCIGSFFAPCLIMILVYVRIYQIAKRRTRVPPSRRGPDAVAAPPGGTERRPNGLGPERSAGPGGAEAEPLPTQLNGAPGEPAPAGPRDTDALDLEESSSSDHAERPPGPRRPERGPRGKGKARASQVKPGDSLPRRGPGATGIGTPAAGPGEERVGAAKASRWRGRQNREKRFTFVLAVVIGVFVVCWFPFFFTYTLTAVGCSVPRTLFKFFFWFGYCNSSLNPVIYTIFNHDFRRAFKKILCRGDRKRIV
UniProt P21728, whole entry: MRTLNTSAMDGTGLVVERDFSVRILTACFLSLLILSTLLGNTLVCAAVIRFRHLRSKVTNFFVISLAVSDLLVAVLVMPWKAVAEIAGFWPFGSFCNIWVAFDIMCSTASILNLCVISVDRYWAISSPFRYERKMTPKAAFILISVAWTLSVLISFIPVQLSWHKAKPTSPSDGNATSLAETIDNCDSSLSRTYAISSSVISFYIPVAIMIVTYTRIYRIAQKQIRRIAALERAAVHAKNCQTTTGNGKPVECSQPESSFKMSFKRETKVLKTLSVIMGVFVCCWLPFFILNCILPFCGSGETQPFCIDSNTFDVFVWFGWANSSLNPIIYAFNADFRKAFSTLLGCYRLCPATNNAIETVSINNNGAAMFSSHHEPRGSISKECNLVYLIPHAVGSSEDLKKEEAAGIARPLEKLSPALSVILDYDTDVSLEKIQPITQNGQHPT
UniProt P18089, whole entry: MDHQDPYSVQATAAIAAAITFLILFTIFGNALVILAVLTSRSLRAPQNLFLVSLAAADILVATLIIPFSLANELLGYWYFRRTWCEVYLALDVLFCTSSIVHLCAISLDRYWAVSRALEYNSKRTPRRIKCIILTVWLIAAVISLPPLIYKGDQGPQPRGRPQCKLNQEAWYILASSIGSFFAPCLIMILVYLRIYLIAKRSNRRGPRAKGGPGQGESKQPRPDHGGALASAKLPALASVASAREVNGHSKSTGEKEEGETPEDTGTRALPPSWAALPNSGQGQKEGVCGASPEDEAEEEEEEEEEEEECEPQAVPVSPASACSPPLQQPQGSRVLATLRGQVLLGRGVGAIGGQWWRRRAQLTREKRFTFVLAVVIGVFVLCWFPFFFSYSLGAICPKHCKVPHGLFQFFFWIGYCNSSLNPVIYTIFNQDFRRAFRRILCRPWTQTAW
UniProt P07550, whole entry: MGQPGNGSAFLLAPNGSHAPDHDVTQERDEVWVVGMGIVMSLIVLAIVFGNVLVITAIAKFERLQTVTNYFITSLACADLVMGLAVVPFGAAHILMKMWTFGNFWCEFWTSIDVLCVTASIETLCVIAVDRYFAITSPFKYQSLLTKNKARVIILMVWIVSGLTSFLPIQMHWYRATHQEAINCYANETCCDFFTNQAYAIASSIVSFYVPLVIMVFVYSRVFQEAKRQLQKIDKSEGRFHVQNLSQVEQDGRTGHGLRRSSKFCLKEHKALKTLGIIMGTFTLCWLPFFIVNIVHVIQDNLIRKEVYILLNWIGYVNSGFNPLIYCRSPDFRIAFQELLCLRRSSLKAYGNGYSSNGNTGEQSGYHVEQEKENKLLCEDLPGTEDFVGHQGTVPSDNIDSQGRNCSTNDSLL

Where only a bound is given, the exact number is not on record here.

By AC50 is commonly meant the concentration at which the activity in the assay is half-maximal.
Further: assay procedure not described here.

On Acetylcholinesterase, `CCN(CC)CCCC(C)Nc1c2ccc(Cl)cc2nc2ccc(OC)cc12` (stereo not given) [QUINACRINE] showed an AC50 of 0.928 µM.
With `C=CCc1ccccc1OCC(O)CNC(C)C` (stereo not given) [ALPRENOLOL], the half-maximal activity concentration (AC50) in assay [1] is 0.006 µM.
As for `Cc1nc(Nc2ncc(C(=O)Nc3c(C)cccc3Cl)s2)cc(N2CCN(CCO)CC2)n1` [DASATINIB], the AC50 in assay [2] and in assay [3] was above 50 µM in each case.
For `Cc1c(C(=O)NN2CCCCC2)nn(-c2ccc(Cl)cc2Cl)c1-c1ccc(Cl)cc1` [RIMONABANT], the AC50 at Mu-type opioid receptor [4] was above 30 µM; at Mu-type opioid receptor [5], 7.16 µM.
In turn, `CCCc1nc2c(C)cc(-c3nc4ccccc4n3C)cc2n1Cc1ccc(-c2ccccc2C(=O)O)cc1` gave an AC50 in assay [6] of 0.001 µM.
Turning to `CNS(=O)(=O)Cc1ccc2[nH]cc(CCN(C)C)c2c1`, the AC50 was 38 µM in assay [7], 13 µM in [8] and 1.42 µM in [9].
On D(3) dopamine receptor, `CCN1CCC[C@H]1CNC(=O)c1cc(S(N)(=O)=O)ccc1OC` [LEVOSULPIRIDE] showed an AC50 of 0.12 µM.
Consider `CCNC(C)Cc1cccc(C(F)(F)F)c1` (stereo not given) [FENFLURAMINE], for which the AC50 in [10] is above 30 µM; in assay [11], above 30 µM; in assay [12], 4.36 µM; in [13], above 10 µM.
Regarding `CC(C)C[C@H]1C(=O)N2CCC[C@H]2[C@]2(O)O[C@](NC(=O)[C@@H]3C=C4c5cccc6[nH]c(Br)c(c56)C[C@H]4N(C)C3)(C(C)C)C(=O)N12` [BROMOCRIPTINE], the AC50 is 0.612 µM in [14]; 0.742 µM in assay [15]; 0.0534 µM in [16]; 1.57 µM in [17]; above 10 µM in assay [18].
`CO[C@]12C[C@@H](COC(=O)c3cncc(Br)c3)CN(C)[C@@H]1Cc1cn(C)c3cccc2c13` [NICERGOLINE]: half-maximal activity on Acetylcholinesterase (AC50) was put at 0.692 µM.
For `CCc1nn(CCCN2CCN(c3cccc(Cl)c3)CC2)c(=O)n1CCOc1ccccc1` [NEFAZODONE], the AC50 in assay [14] is 6.6 µM; in assay [15], 1.42 µM; in assay [18], above 10 µM; in assay [13] it was 0.13 µM.
For the compound `CC(N)Cc1ccccc1` (stereo not given) [AMPHETAMINE], the results for the AC50 at D(1A) dopamine receptor [19] and on D(1A) dopamine receptor [20] were above 30 µM and above 10 µM, respectively.
Turning to `O=C1NCCN1CCN1CCC(c2cn(-c3ccc(F)cc3)c3ccc(Cl)cc23)CC1` [SERTINDOLE], the AC50 was 2 µM in assay [21], above 30 µM in assay [14], above 30 µM in assay [22] and above 30 µM in assay [18].
In turn, `COc1ccc2c3c1O[C@H]1C(=O)CC[C@@]4(O)[C@@H](C2)N(C)CC[C@]314` [OXYCODONE] showed an AC50 in assay [23] of 2 µM.
As for `Clc1ccc2nsnc2c1NC1=NCCN1` [TIZANIDINE], the values for the AC50 in assay [15], in assay [24] and in assay [18] were 0.136 µM, 1.3 µM and 0.115 µM, respectively.

(Values after ChEMBL document CHEMBL5291721, “A preclinical secondary pharmacology resource illuminates target-adverse drug reaction associations of marketed drugs” (Nat Commun, 2023).)
